Assay results from PubChem BioAssay (NCI).
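48-hour exposure; five concentrations; linearly interpolated endpoints. Abbreviation: GI50, concentration required for 50% inhibition of growth. At the TGI there is no net growth.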

Assays:
Test in all cases: NCI-60 cell line screen, 48 h
MDA-MB-435 = test system: MDA-MB-435
OVCAR-8 ovarian = test system: OVCAR-8 ovarian
MALME-3M melanoma = test system: MALME-3M melanoma
HCT-116 colon = test system: HCT-116 colon
SF-295 CNS = test system: SF-295 CNS
SF-539 CNS = test system: SF-539 CNS
MDA-MB-231 breast = test system: MDA-MB-231 breast
PC-3 prostate = test system: PC-3 prostate
786-0 renal = test system: 786-0 renal
U251 CNS = test system: U251 CNS
KM12 colon = test system: KM12 colon
OVCAR-5 ovarian = test system: OVCAR-5 ovarian
OVCAR-4 ovarian = test system: OVCAR-4 ovarian
CCRF-CEM leukemia = test system: CCRF-CEM leukemia
TK-10 renal = test system: TK-10 renal
IGROV1 ovarian = test system: IGROV1 ovarian
K-562 leukemia = test system: K-562 leukemia
SN12C renal = test system: SN12C renal
HCT-15 colon = test system: HCT-15 colon
SK-OV-3 ovarian = test system: SK-OV-3 ovarian
A498 renal = test system: A498 renal
OVCAR-3 ovarian = test system: OVCAR-3 ovarian
UACC-62 melanoma = test system: UACC-62 melanoma
NCI-H522 lung = test system: NCI-H522 lung
SNB-19 CNS = test system: SNB-19 CNS
NCI-H226 lung = test system: NCI-H226 lung
NCI-H460 lung = test system: NCI-H460 lung
ACHN renal = test system: ACHN renal
HCC-2998 colon = test system: HCC-2998 colon
CAKI-1 renal = test system: CAKI-1 renal
NCI-H322M lung = test system: NCI-H322M lung
SNB-75 CNS = test system: SNB-75 CNS
MOLT-4 leukemia = test system: MOLT-4 leukemia
BT-549 breast = test system: BT-549 breast
RPMI-8226 leukemia = test system: RPMI-8226 leukemia
NCI/ADR-RES ovarian = test system: NCI/ADR-RES ovarian
HL-60(TB) leukemia = test system: HL-60(TB) leukemia
EKVX NSCLC = test system: EKVX NSCLC
SW-620 colon = test system: SW-620 colon
LOX IMVI melanoma = test system: LOX IMVI melanoma
SK-MEL-5 melanoma = test system: SK-MEL-5 melanoma
UO-31 renal = test system: UO-31 renal
SK-MEL-2 melanoma = test system: SK-MEL-2 melanoma
UACC-257 melanoma = test system: UACC-257 melanoma
SK-MEL-28 melanoma = test system: SK-MEL-28 melanoma
HS 578T breast = test system: HS 578T breast
A549 NSCLC = test system: A549 NSCLC
SF-268 CNS = test system: SF-268 CNS
M14 melanoma = test system: M14 melanoma
COLO 205 colon = test system: COLO 205 colon
HOP-92 NSCLC = test system: HOP-92 NSCLC
NCI-H23 lung = test system: NCI-H23 lung
T-47D breast = test system: T-47D breast
HOP-62 NSCLC = test system: HOP-62 NSCLC
MCF7 breast = test system: MCF7 breast
RXF 393 renal = test system: RXF 393 renal
DU-145 prostate = test system: DU-145 prostate
SR leukemia = test system: SR leukemia
MDA-N = test system: MDA-N
HT29 colon = test system: HT29 colon

For `O=[N+]([O-])c1cn(F)c([N+](=O)[O-])n1`, which GI50 (MDA-MB-435) is on record?
Its GI50 is 22.4 µM.

What about the TGI (MDA-MB-435) of the same compound?
The TGI was 47.9 µM.

And the GI50 (OVCAR-8 ovarian)?
The GI50 was 23.8 µM.

And the TGI (OVCAR-8 ovarian)?
Its TGI is 62.2 µM.

What about the GI50 (MALME-3M melanoma) of the same compound?
Its GI50 is 14.9 µM.

And the TGI (MALME-3M melanoma)?
Its TGI is 28.3 µM.

What about the GI50 (HCT-116 colon) of the same compound?
The GI50 was 18.8 µM.

And the TGI (HCT-116 colon)?
The TGI was 39.1 µM.

And the GI50 (SF-295 CNS)?
Its GI50 is 86.4 µM.

What about the TGI (SF-295 CNS) of the same compound?
Its TGI is over 100 µM.

What about the GI50 (SF-539 CNS) of the same compound?
Its GI50 is 18.5 µM.

What about the TGI (SF-539 CNS) of the same compound?
Its TGI is 37.6 µM.

And the GI50 (MDA-MB-231 breast)?
Its GI50 is 15.2 µM.

What about the TGI (MDA-MB-231 breast) of the same compound?
The TGI was 19.6 µM.

And the GI50 (PC-3 prostate)?
Its GI50 is 34.8 µM.

And the TGI (PC-3 prostate)?
Its TGI is 81.1 µM.

What about the GI50 (786-0 renal) of the same compound?
Its GI50 is 18.6 µM.

What about the TGI (786-0 renal) of the same compound?
The TGI was 35.9 µM.

What about the GI50 (U251 CNS) of the same compound?
Its GI50 is 27.1 µM.

What about the TGI (U251 CNS) of the same compound?
Its TGI is 77.2 µM.

What about the GI50 (KM12 colon) of the same compound?
The GI50 was 41.5 µM.

And the TGI (KM12 colon)?
Its TGI is 57.4 µM.

What about the GI50 (OVCAR-5 ovarian) of the same compound?
Its GI50 is 19 µM.

And the TGI (OVCAR-5 ovarian)?
Its TGI is 38.1 µM.

And the GI50 (OVCAR-4 ovarian)?
The GI50 was 18.7 µM.

What about the TGI (OVCAR-4 ovarian) of the same compound?
The TGI was 33.6 µM.

And the GI50 (CCRF-CEM leukemia)?
The GI50 was 4.24 µM.

And the TGI (CCRF-CEM leukemia)?
The TGI was over 100 µM.

And the GI50 (TK-10 renal)?
Its GI50 is 16.8 µM.

And the TGI (TK-10 renal)?
The TGI was 31.2 µM.

What about the GI50 (IGROV1 ovarian) of the same compound?
The GI50 was 19.3 µM.

And the TGI (IGROV1 ovarian)?
Its TGI is 35.7 µM.

And the GI50 (K-562 leukemia)?
Its GI50 is 8.91 µM.

And the TGI (K-562 leukemia)?
Its TGI is over 100 µM.

And the GI50 (SN12C renal)?
Its GI50 is 13.3 µM.

And the TGI (SN12C renal)?
Its TGI is 17.8 µM.

What about the GI50 (HCT-15 colon) of the same compound?
Its GI50 is 10.6 µM.

What about the TGI (HCT-15 colon) of the same compound?
The TGI was 25.4 µM.

And the GI50 (SK-OV-3 ovarian)?
The GI50 was 53.4 µM.

And the TGI (SK-OV-3 ovarian)?
Its TGI is 76.1 µM.

And the GI50 (A498 renal)?
Its GI50 is 17.3 µM.

What about the TGI (A498 renal) of the same compound?
Its TGI is 24.2 µM.

What about the GI50 (OVCAR-3 ovarian) of the same compound?
Its GI50 is 17.2 µM.

What about the TGI (OVCAR-3 ovarian) of the same compound?
The TGI was 31 µM.

And the GI50 (UACC-62 melanoma)?
The GI50 was 18 µM.

And the TGI (UACC-62 melanoma)?
Its TGI is 34 µM.

And the GI50 (NCI-H522 lung)?
The GI50 was 4.64 µM.

What about the TGI (NCI-H522 lung) of the same compound?
The TGI was 18.1 µM.

And the GI50 (SNB-19 CNS)?
The GI50 was over 100 µM.

And the TGI (SNB-19 CNS)?
Its TGI is over 100 µM.

And the GI50 (NCI-H226 lung)?
Its GI50 is 51 µM.

What about the TGI (NCI-H226 lung) of the same compound?
Its TGI is 77.2 µM.

And the GI50 (NCI-H460 lung)?
Its GI50 is 46.6 µM.

And the TGI (NCI-H460 lung)?
The TGI was 69.6 µM.

And the GI50 (ACHN renal)?
The GI50 was 11.6 µM.

What about the TGI (ACHN renal) of the same compound?
The TGI was 23.8 µM.

And the GI50 (HCC-2998 colon)?
Its GI50 is 12.8 µM.

And the TGI (HCC-2998 colon)?
Its TGI is 17.7 µM.

And the GI50 (CAKI-1 renal)?
The GI50 was 6.51 µM.

And the TGI (CAKI-1 renal)?
The TGI was 12.2 µM.

And the GI50 (NCI-H322M lung)?
Its GI50 is over 100 µM.

What about the TGI (NCI-H322M lung) of the same compound?
The TGI was over 100 µM.

And the GI50 (SNB-75 CNS)?
Its GI50 is 40.5 µM.

What about the TGI (SNB-75 CNS) of the same compound?
Its TGI is 58.3 µM.

What about the GI50 (MOLT-4 leukemia) of the same compound?
The GI50 was 3.4 µM.

And the TGI (MOLT-4 leukemia)?
The TGI was 44.1 µM.

What about the GI50 (BT-549 breast) of the same compound?
Its GI50 is 17.8 µM.

And the TGI (BT-549 breast)?
Its TGI is 31.9 µM.

And the GI50 (RPMI-8226 leukemia)?
The GI50 was 23.7 µM.

What about the TGI (RPMI-8226 leukemia) of the same compound?
Its TGI is 82.9 µM.

What about the GI50 (NCI/ADR-RES ovarian) of the same compound?
The GI50 was 20.9 µM.

What about the TGI (NCI/ADR-RES ovarian) of the same compound?
The TGI was 62.5 µM.

And the GI50 (HL-60(TB) leukemia)?
Its GI50 is 3.81 µM.

What about the TGI (HL-60(TB) leukemia) of the same compound?
Its TGI is 56.2 µM.

And the GI50 (EKVX NSCLC)?
Its GI50 is 19.3 µM.

What about the TGI (EKVX NSCLC) of the same compound?
The TGI was 34.3 µM.

What about the GI50 (SW-620 colon) of the same compound?
Its GI50 is 20.5 µM.

And the TGI (SW-620 colon)?
Its TGI is 59.8 µM.

What about the GI50 (LOX IMVI melanoma) of the same compound?
Its GI50 is 23.5 µM.

What about the TGI (LOX IMVI melanoma) of the same compound?
The TGI was 59.4 µM.

What about the GI50 (SK-MEL-5 melanoma) of the same compound?
Its GI50 is 17.6 µM.

And the TGI (SK-MEL-5 melanoma)?
Its TGI is 34.6 µM.

And the GI50 (UO-31 renal)?
Its GI50 is 19.1 µM.

And the TGI (UO-31 renal)?
The TGI was 33.3 µM.

And the GI50 (SK-MEL-2 melanoma)?
The GI50 was 31.8 µM.

What about the TGI (SK-MEL-2 melanoma) of the same compound?
Its TGI is 86.4 µM.

What about the GI50 (UACC-257 melanoma) of the same compound?
The GI50 was 18.8 µM.

What about the TGI (UACC-257 melanoma) of the same compound?
The TGI was 38.7 µM.

And the GI50 (SK-MEL-28 melanoma)?
Its GI50 is 26.6 µM.

And the TGI (SK-MEL-28 melanoma)?
Its TGI is 63.8 µM.

And the GI50 (HS 578T breast)?
Its GI50 is over 100 µM.

What about the TGI (HS 578T breast) of the same compound?
The TGI was over 100 µM.

And the GI50 (A549 NSCLC)?
Its GI50 is 49.3 µM.

What about the TGI (A549 NSCLC) of the same compound?
Its TGI is 74.5 µM.

What about the GI50 (SF-268 CNS) of the same compound?
Its GI50 is 20.3 µM.

And the TGI (SF-268 CNS)?
Its TGI is 41.7 µM.

What about the GI50 (M14 melanoma) of the same compound?
Its GI50 is 15.9 µM.

And the TGI (M14 melanoma)?
The TGI was 32.2 µM.

And the GI50 (COLO 205 colon)?
The GI50 was 8.41 µM.

And the TGI (COLO 205 colon)?
The TGI was 55.6 µM.

And the GI50 (HOP-92 NSCLC)?
Its GI50 is 21.2 µM.

And the TGI (HOP-92 NSCLC)?
Its TGI is 42 µM.

What about the GI50 (NCI-H23 lung) of the same compound?
Its GI50 is 18.6 µM.

What about the TGI (NCI-H23 lung) of the same compound?
The TGI was 36.4 µM.

What about the GI50 (T-47D breast) of the same compound?
Its GI50 is 22.3 µM.

What about the TGI (T-47D breast) of the same compound?
Its TGI is 46.8 µM.

And the GI50 (HOP-62 NSCLC)?
The GI50 was over 100 µM.

What about the TGI (HOP-62 NSCLC) of the same compound?
Its TGI is over 100 µM.

What about the GI50 (MCF7 breast) of the same compound?
The GI50 was 22.3 µM.

What about the TGI (MCF7 breast) of the same compound?
Its TGI is 59.8 µM.

And the GI50 (RXF 393 renal)?
The GI50 was 16.6 µM.

And the TGI (RXF 393 renal)?
Its TGI is 33.7 µM.

What about the GI50 (DU-145 prostate) of the same compound?
The GI50 was 25.8 µM.

And the TGI (DU-145 prostate)?
The TGI was 67 µM.

And the GI50 (SR leukemia)?
Its GI50 is 10.3 µM.

And the TGI (SR leukemia)?
Its TGI is 73.9 µM.

What about the GI50 (MDA-N) of the same compound?
Its GI50 is 13.6 µM.

And the TGI (MDA-N)?
The TGI was 18.4 µM.

What about the GI50 (HT29 colon) of the same compound?
The GI50 was 20.6 µM.

And the TGI (HT29 colon)?
Its TGI is 47.8 µM.
